In assay [1] the target is T1, catalase HPII, overproduced and purified (Escherichia coli, UniProt P21179 1-753).
T1 construct: catalase HPII of Escherichia coli, gene cloned from the E. coli chromosome; also called pure catalase HPII; purified HPII; source: over-expression system, gene cloned from E. coli chromosome
T1 sequence (looked up): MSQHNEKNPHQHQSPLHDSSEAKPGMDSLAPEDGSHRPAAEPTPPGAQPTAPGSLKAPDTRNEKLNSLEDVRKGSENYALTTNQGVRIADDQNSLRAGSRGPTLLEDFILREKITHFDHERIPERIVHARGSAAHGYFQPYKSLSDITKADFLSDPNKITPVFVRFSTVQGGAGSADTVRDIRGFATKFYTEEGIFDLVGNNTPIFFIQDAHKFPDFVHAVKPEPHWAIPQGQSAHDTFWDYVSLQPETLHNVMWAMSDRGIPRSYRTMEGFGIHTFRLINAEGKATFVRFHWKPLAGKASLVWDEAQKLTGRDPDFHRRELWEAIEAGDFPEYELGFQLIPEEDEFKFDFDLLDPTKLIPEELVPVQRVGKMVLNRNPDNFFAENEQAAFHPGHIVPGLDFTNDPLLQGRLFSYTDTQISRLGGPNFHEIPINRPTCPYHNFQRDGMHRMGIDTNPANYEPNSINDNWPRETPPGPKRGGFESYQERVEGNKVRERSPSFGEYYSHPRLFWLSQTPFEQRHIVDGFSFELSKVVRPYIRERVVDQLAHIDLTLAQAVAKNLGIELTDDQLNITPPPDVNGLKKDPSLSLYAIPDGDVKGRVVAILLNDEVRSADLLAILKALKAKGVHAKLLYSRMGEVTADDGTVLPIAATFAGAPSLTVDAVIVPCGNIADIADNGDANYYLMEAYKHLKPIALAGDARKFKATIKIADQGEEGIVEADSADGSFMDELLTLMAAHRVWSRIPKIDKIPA
Put plainly: dynamic light scattering; mixture of wild-type Hfq (~0.5 mg/ml) and HPII (~0.5 mg/ml) after incubation at 40°C, measured at 25°C. Conditions: both partners purified.

The target in assay [2] is T2, catalase HPII (endogenous, Escherichia coli) (Escherichia coli (endogenous in E. coli), UniProt P21179 1-753).
T2 construct: catalase HPII of Escherichia coli, product of the katE gene, endogenous protein, printed molecular weight 84 kDa; residues 27-753 and one heme resolved in the map; Homotetramer, one heme per subunit; also called HPII tetramer; source: endogenous, E. coli overexpressing PomAB mutants
T2 sequence (looked up): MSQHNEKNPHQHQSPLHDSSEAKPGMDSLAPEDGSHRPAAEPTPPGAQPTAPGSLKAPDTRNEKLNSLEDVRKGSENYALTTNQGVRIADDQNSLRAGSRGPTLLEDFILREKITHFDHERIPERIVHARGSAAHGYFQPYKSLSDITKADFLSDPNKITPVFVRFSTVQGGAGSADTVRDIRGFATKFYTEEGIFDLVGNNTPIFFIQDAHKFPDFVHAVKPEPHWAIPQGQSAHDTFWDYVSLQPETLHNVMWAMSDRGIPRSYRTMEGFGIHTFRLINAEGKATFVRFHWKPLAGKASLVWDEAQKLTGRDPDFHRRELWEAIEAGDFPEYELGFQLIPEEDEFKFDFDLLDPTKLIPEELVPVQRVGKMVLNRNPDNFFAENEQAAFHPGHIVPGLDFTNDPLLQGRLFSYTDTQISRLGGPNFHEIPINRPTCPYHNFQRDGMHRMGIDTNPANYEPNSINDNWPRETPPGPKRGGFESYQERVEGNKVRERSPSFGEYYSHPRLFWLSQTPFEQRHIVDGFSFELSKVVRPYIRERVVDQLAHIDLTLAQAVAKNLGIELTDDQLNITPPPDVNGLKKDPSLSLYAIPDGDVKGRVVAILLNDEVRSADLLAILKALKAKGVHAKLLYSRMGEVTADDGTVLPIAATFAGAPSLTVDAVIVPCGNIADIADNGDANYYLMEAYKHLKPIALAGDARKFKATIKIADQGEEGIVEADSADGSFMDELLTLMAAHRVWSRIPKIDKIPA
Put plainly: crystal structure; complex of endogenous Hfq and HPII isolated together from E. coli lysate (nickel-affinity, gel filtration); hanging drop, 20°C, 0.1 M Tris-HCl pH 9.0, 0.18 M NaCl, 10% PEG 4000; 2.85 Å, space group I222. Conditions: both partners purified. Background: Size exclusion chromatography separates by hydrodynamic size, large species first.

Experimental findings from article PMC3819363, “Post-Transcriptional Regulator Hfq Binds Catalase HPII: Crystal Structure of the Complex” (PLoS ONE, 2013) are described below.

Values joined by “and” are separate entries in the source; they are usually repeats but may differ in a detail not shown here. Identical values can stand only once.

B1: wild-type Hfq, overproduced and purified (natural protein, Escherichia coli, UniProt P0A6X3 1-102, looked up)
chain: MAKGQSLQDPFLNALRRERVPVSIYLVNGIKLQGQIESFDQFVILLKNTVSQMVYKHAISTVVPSRPVSHHSNNAGGGTSSNYHHGSSAQNTSAQQDSEETE
notes: Hfq of Escherichia coli, gene cloned from the E. coli chromosome; wild type; Hexameric rings that form dimers of hexamers in 150 mM NaCl, 20 mM Tris-HCl pH 8.0; also called pure Hfq; purified Hfq; source: over-expression system, gene cloned from E. coli chromosome
For B1, the “stoichiometry N” value in assay [1] is 1 Hfq hexamers per HPII tetramer and 2 Hfq hexamers per HPII tetramer.

B2: Hfq, post-transcriptional regulator (endogenous, Escherichia coli) (natural protein, Escherichia coli (endogenous in E. coli), UniProt P0A6X3 1-102, looked up)
chain: MAKGQSLQDPFLNALRRERVPVSIYLVNGIKLQGQIESFDQFVILLKNTVSQMVYKHAISTVVPSRPVSHHSNNAGGGTSSNYHHGSSAQNTSAQQDSEETE
notes: Hfq of Escherichia coli, endogenous protein, printed molecular weight 11.2 kDa; residues 5-69 resolved in the map, about 40 C-terminal residues not seen; Homohexameric ring; Endogenous, untagged; also called Hfq hexamer; Hfq ring; source: endogenous, E. coli overexpressing PomAB mutants
As to B2, in assay [2], the “stoichiometry N” value was 1 Hfq hexamer per HPII subunit.
